Experimental findings from patent publication US6759509B1, “Branched peptide linkers” (Bristol-Myers Squibb Company, priority 1996, dated 2004) are described below.

The nature of the data set: decomposition of the isolated drug/linker in solution. The class given is physicochemical. To be noted: by HPLC for Example 31. The procedure: A solution of MEt-IDA-(Phe-Lys(Mtr)-PABC-MMC)2 30 (134.6 mg, 0.0590 mmol) in methylene chloride (3 mL) at rt was treated with anisole (1.28 mL, 200 equiv) and 1 M chloroacetic acid in methylene chloride (1.18 mL, 20 equiv). After 3.5 h ethyl acetate (30 mL) was added. The resulting purple solid was collected by filtration, washed with ethyl acetate and air-dried (97.8 mg, 82%). […] MS (FAB) 1738.3 (M+Na)^+, 1776.4 (M+K)^+.
MEt-IDA-(Phe-Lys(Mtr)-PABC-7-Paclitaxel)2 33 (333.0 mg, 0.0861 mmol) in methylene chloride (3 mL) was treated with anisole (1.87 mL, 200 equiv) and 1 M chloroacetic acid in methylene chloride (1.72 mL, 20 equiv). After 4 h the mixture was diluted with ether (30 mL). The resulting suspension was sonicated for several minutes and then the solid was collected by filtration and washed with ether (256.3 mg, 97%). […] MS (ESI) 2778.2 (MH)^+.

With “MEt-IDA-(Phe-Lys-PABC-7-Paclitaxel)2.2ClCH2CO2H [Example 34]”, the “stability of the product in solution” value was “decompose slowly in solution”.
